IC50 data for 3 compounds are collected here from patent US20260226068A1, “IMIDAZOTRIAZINE IL-17A MODULATORS AND USES THEREOF” (DICE ALPHA, INC., priority 2023, published 2026).

By UniProt entry, the sequences of proteins in these tests, tags left out. Residues count along the entry.
UniProt Q16552, 24-155 limits assumed: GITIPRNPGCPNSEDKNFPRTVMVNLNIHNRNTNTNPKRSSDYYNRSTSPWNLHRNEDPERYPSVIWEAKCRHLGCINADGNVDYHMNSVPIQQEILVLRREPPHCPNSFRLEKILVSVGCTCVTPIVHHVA
UniProt Q96PD4, 31-163 limits assumed: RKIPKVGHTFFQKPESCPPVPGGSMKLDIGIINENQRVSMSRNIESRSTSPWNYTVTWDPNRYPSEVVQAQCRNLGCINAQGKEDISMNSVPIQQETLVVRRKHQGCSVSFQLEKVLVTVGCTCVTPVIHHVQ

A value given as a limit tells only on which side of the number the result lay.

The target in one assay is IL-17A/F (Homo sapiens, UniProt Q16552+Q96PD4). In words: IL-17A/F HEK-Blue cell assay (SEAP reporter). As to conditions: read-out: HEK-Blue IL17AF (IC50 for IL-17A/F inhibition); HEK-Blue IL-17A reporter cells, IL17A/F 5 ng/mL, 20 hours, SEAP read at A630. As to the method: (§1) The HEK-Blue IL-17A reporter cell line (Fisher #NC 1408637) was used for cell-based IL-17A/A inhibition assays. Cells were grown and prepared for assays according to the manufacturer's instructions. This cell line consists of HEK 293 cells that were designed to expressed IL-17RA, IL-17RC, and the Act1 adapter molecule, the combination of which, when stimulated by IL-17A/A or IL17A/F activates a […] promoter and drives expression of the recombinant Secreted Alkaline Phosphatase (SEAP) gene. Media from the cells is then added to a development reagent (Quanti-Blue Substrate, Fisher #NC971 1613), and read at A630.
(§2) Compounds were dispensed in DMSO to an empty clear 384-well tissue culture plate in a titration ranging from 10 μM to 27 pM, with DMSO added to every well to a final concentration of […]. Cells were then added to the plate (45 μL/well at a concentration of 280,000 cells/mL). IL17A/A (Genscript #Z03228) or IL17A/F (R&D Systems) was added to the plate to a final concentration of 5 ng/mL and a final well volume of 50 μL. The cells, compound, and IL-17A/A or IL17A/F were then incubated for 20 hours before media was removed for SEAP analysis. The resulting inhibition curve was then analyzed using Dotmatics' integrated 4-parameter fit screening protocol to generate IC50 values.
(§3) Table 2 includes IC50 values for IL-17A/A and IL-17A/F inhibition of selected compounds; with compounds having a IC50 of A<100 nM; B 100-1000 nM; and C>1000 nM.

A further assay has as its target IL-17A/A (Homo sapiens, UniProt Q16552). Description: IL-17A/A HEK-Blue cell assay (SEAP reporter). As to conditions: read-out: HEK-Blue IL17AA (IC50 for IL-17A/A inhibition); HEK-Blue IL-17A reporter cells, IL17A/A 5 ng/mL, 20 hours, SEAP read at A630. As to the method: as §1, §2, §3

Consider `O=C(N[C@H](c1cn2nc(C[C@H]3C[C@@H](C(F)(F)F)CNC3=O)cnc2n1)[C@H]1CCCC(F)(F)C1)c1nonc1C1CC1`, for which the values for the IC50 at IL-17A/F and on IL-17A/A were over 1000 nM and under 100 nM, respectively.

Take `CCn1nccc1C(=O)N[C@H](c1cn2nc(C[C@H]3C[C@@H](C(F)(F)F)CNC3=O)c(CN3CCOCC3C)nc2n1)C1CCC(F)(F)CC1` (single isomer, unassigned) [Compound 232]: the IC50 was 100 to 1000 nM at IL-17A/F and under 100 nM on IL-17A/A.

Take `O=C(N[C@H](c1cn2nc(C[C@H]3C[C@@H](C(F)(F)F)CNC3=O)cnc2n1)[C@@H]1CCCC(F)(F)C1)c1nonc1C1CC1`: the IC50 at IL-17A/F is over 1000 nM; at IL-17A/A it was 100 to 1000 nM.
